Literature values in PMC10182956 (Archives of Toxicology, 2023).

Details: human, published; ref Birkett and Miners 1991; Graham et al. 2011; Freedman and Somberg 1991; Vasudev et al. 2001; cited from earlier work

For `Cn1c(=O)c2c(ncn2C)n(C)c1=O` [caffeine], the “In vivo Css” value is given as 10.8 to 53.6 µM.
